The list shows a part of the results, in another mix than the full data. Activity calls are given as the source filed them.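 The calls were made as follows: active = fluorescence ratio to DMSO above its plate's cutoff, the plate mean ratio plus 5 SD (cut at about 210% in these data); inactive = the rest.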
experiment: intrinsic fluorescence of compounds, yeast control strain – S. cerevisiae AD/pABC3, flow cytometry, Cherry Pick1 set, artefact control for antifungal efflux pump inhibitor project, confirmation (AID 588517);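 also: unstained yeast with no Nile Red so the signal is compound autofluorescence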; conditions: S. cerevisiae AD/pABC3, compound fluorescence, at 10 µM, active compounds read high

Compound	fluorescence ratio to DMSO
O=P(Nc1nccs1)(c1ccccc1)c1nc2ccccc2s1 (stereo unspecified)	inactive: 103%

Reference: PubChem BioAssay AID588517 (NMMLSC, 2011)
